Some results are limits rather than exact numbers.

The source of these data is ChEMBL document CHEMBL4400547 (J Med Chem, 2019).

For the test, the system named is HEK293. Kind of test: cells. The conditions noted are these: Homo sapiens.

By EC50 is commonly meant the concentration giving half of the maximal effect. A low value points to an effect from little substance. As to `CC(C)c1nc(-c2ccc(NC(=O)Nc3cccc(C(F)(F)F)c3)c3ccccc23)c2c(N)nccn12`, the EC50 is more than 49 µM.
